# In patent US7198811B2, “Compositions for the preservation of fruits and vegetables” (University of Guelph, priority 2002, dated 2007):
# Test system: Vista Cherries
# Test: Postharvest dips of compositions or individual components on Vista cherries
# Format: in vivo
# Details: dipped 2.5 min, concentration as printed per treatment; stored 4° C. in air
compound,measurement,value
Cc1c(C)c2c(c(C)c1O)CC[C@@](C)(CCC[C@H](C)CCC[C@H](C)CCCC(C)C)O2 [α-tocopherol],Soluble Solids (%) 2 weeks,16.1%
